## Yeast mating assay 2: variants of the scFv Ab-91

The measurements come from Engelhart et al. 2022 (doi:10.1038/s41597-022-01779-4) through the FLAb antibody collection.

The target is the same throughout: PDVDLGDISGINAS, from the HR2 region of SARS-CoV-2 spike.

The variants keep the light chain, the linker and the frameworks of Ab-91 (scFv order VL, a 15-residue (Gly4Ser)3 linker, VH).
VL: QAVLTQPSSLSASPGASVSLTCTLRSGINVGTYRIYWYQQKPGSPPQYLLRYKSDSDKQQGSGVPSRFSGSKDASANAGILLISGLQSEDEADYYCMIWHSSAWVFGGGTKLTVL
VH: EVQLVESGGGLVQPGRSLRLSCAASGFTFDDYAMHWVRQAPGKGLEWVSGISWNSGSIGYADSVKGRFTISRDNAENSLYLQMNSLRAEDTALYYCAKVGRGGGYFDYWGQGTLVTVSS

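The library (AAYL51) carries one to three amino acid substitutions per variant, with no insertions or deletions. The scFvs were displayed on barcoded MATa yeast, the peptide on MATalpha yeast. Binding brings cells together so that they mate, and sequencing counts the barcode pairs among the diploids. The ratio of observed to expected reads was calibrated, replicate by replicate, on BCL2-family standards whose Kd was known from biolayer interferometry. There are three technical replicates.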

Substitutions are numbered in sequence along the VH above, starting at 1 (not Kabat).
Values are log10 of the apparent Kd in nM; lower means stronger binding.
Averages over replicates are reported, and they cover detected replicates only.
"ND" marks a missing value. The strain was present, yet no cells mated with the target were sequenced in that replicate, which points to weak or no binding.
Background: pairings of library AAYL51 with three empty control strains gave a value in 21% of cases (median 4.54, 5th percentile 3.26). Values in that range, when seen in few replicates, are hard to tell from nonspecific mating. Also given: how often the same scFv was detected with the empty control strains.

With G26K/S52W/K65E the result was 4.93, 6.30, ND (mean 5.62; controls 4 of 9).
With G26H/I51L/V64K the result was ND, 4.65, 4.97 (mean 4.81; controls 5 of 9).
With F27T/H35C/I58Y the result was ND, ND, ND (controls 0 of 9).
With F29T/D62T the result was 2.08, 2.23, 1.79 (mean 2.03; controls 3 of 9).
With A61C/G104M/D107P the result was 2.07, 1.99, 1.45 (mean 1.83; controls 3 of 9).
With D30Q/N54W/Y60L the result was ND, ND, ND (controls 0 of 9).
With T28E/G50I/Y60W the result was ND, ND, 4.11 (controls 1 of 9).
With G26N/F29H the result was ND, ND, ND (controls 0 of 9).
With T28K/S63R/F106E the result was 4.49, 6.05, 4.22 (mean 4.92; controls 2 of 9).
With S52Q/V99A/F106K the result was ND, ND, ND (controls 1 of 9).
With S52F/G102D/D107R the result was ND, ND, ND (controls 2 of 9).
With S55P the result was ND, ND, ND (controls 2 of 9).
With I51K/V99G the result was ND, ND, ND (controls 0 of 9).
With H35A/I51H/A61F the result was 4.94, ND, ND (controls 2 of 9).
With S52P/S63N/Y108S the result was 5.57, 6.54, ND (mean 6.06; controls 2 of 9).
With I51C/G59W/A61P the result was 4.98, 5.67, 6.29 (mean 5.65; controls 7 of 9).
With G26M/S55C/S63D the result was ND, ND, ND (controls 0 of 9).
With I58A the result was 4.60, 5.78, ND (mean 5.19; controls 2 of 9).
With G104P/F106Y/Y108L the result was 3.82, 5.26, 4.55 (mean 4.54; controls 4 of 9).
With G56K/S57N/Y105Q the result was ND, ND, ND (controls 0 of 9).
With D62G/G102Q/F106E the result was 4.20, 4.10, 4.33 (mean 4.21; controls 7 of 9).
With G26E/A61E/V64Y the result was ND, ND, ND (controls 0 of 9).
With F29V/G59V/G103T the result was ND, ND, ND (controls 0 of 9).
With V99S/G103C/G104F the result was ND, ND, ND (controls 0 of 9).
With S55I/D62R/S63G the result was ND, ND, ND (controls 0 of 9).
With Y60W/D107V the result was 3.50, ND, ND (controls 1 of 9).
With T28M/A33T the result was 5.16, ND, ND (controls 0 of 9).
With Y32H/H35K/R101C the result was ND, 4.44, ND (controls 1 of 9).
With F27A/A33C/Y105D the result was ND, ND, ND (controls 1 of 9).
With S63E/G104P the result was ND, ND, ND (controls 1 of 9).
With Y60L/K65D/R101S the result was 3.59, 3.91, 3.79 (mean 3.76; controls 5 of 9).

Picked from the list: the 4 lowest averages where every replicate gave a value.

changes,"log10 Kd, replicates","mean, log10 nM",control signals
A61C/G104M/D107P,"2.07, 1.99, 1.45",1.83,3 of 9
F29T/D62T,"2.08, 2.23, 1.79",2.03,3 of 9
Y60L/K65D/R101S,"3.59, 3.91, 3.79",3.76,5 of 9
D62G/G102Q/F106E,"4.20, 4.10, 4.33",4.21,7 of 9